In US20230355780A1, “Synthetic Implantable Composition with Immunomodulatory Properties” (priority 2022, published 2023):

Test: In vitro hydrolytic degradation in PBS (pH 7.4), 37° C.

change in pH of the degradation medium | Substance
remained unchanged | poly(2-butyrate trimethylene carbonate-co-T) [P(BtT-T)-40-60]
largest decrease | poly(2-hydroxy trimethylene carbonate-co-T) [P(HT-T)-40-60]
